Patent publication US20090181369A1, “Methods for the Treatment of Disease” (priority 2005, published 2009)
Where two headings read alike, the source gives them in different places.

Key:
FTase, β subunit W106R = FTase, β subunit W106R (Homo sapiens, UniProt P49356, W106R)
FTase, β subunit V242I = FTase, β subunit V242I (Homo sapiens, UniProt P49356, V242I)
[1] = molecular target: FTase, wild-type β subunit (Homo sapiens, UniProt P49356); settings: read-out: Molecular IC50, HDJ2 farnesylation, 48 hours
FTase, β subunit G241E = FTase, β subunit G241E (Homo sapiens, UniProt P49356, G241E); settings: read-out: molecular IC50, HDJ2 farnesylation
FTase, β subunit P152S = FTase, β subunit P152S (Homo sapiens, UniProt P49356, P152S)
FTase, β subunit C95R = FTase, β subunit C95R (Homo sapiens, UniProt P49356, C95R); settings: read-out: molecular IC50, HDJ2 farnesylation
[2] = read-out: Molecular IC50, HDJ2 farnesylation, 48 hours
[3] = read-out: Molecular IC50, HDJ2 farnesylation, 48 hours, listed as lonafarnib

IC50 (FTase, β subunit W106R; [2]): > 10000 nM
IC50 (FTase, β subunit W106R; [3]): > 2500 nM
IC50 (FTase, β subunit V242I; [2]): 1300 nM
IC50 (FTase, β subunit V242I; [3]): < 2500 nM
IC50 [1]: 800 nM
IC50 (FTase, β subunit G241E): > 2500 nM
IC50 (FTase, β subunit P152S; [2]): 1400 nM
IC50 (FTase, β subunit P152S; [3]): < 2500 nM
IC50 (FTase, β subunit C95R): > 2500 nM
SMILES: NC(=O)N1CCC(CC(=O)N2CCC([C@H]3c4ncc(Br)cc4CCc4cc(Cl)cc(Br)c43)CC2)CC1 [Lonafarnib, (+)-4-[2-[4-(8-Chloro-3,10-dibromo-6,11-dihydro-5H-benzo[5,6]cyclohepta[1,2-b]-pyridin-11(R)-yl)-1-piperidinyl]-2-oxo-ethyl]-1-piperidinecarboxamide]
